Measurements taken from US11111250B2, “Polymorphs of Ribociclib mono succinate” (SHILPA MEDICARE LIMITED, priority 2017, dated 2021).

How the values were obtained:
[1] = hydrate, as obtained by the process

moisture absorption (normal atmospheric conditions): no moisture absorption observed
moisture content [1]: less than 5.0%
Substance: Ribociclib mono succinate
PXRD of the sample after humidity exposure and drying (sample obtained after 3 hours at 90% RH, dried at 60-80° C.): resembles with the Crystalline Ribociclib mono succinate Form-SRS-I
